Source: patent US20260232830A1, “ANTIGEN BINDING MOLECULE SPECIFICALLY BINDING TO EGFR AND MUC1, DRUG CONJUGATE THEREOF, AND MEDICAL USE THEREOF” (Jiangsu Hengrui Pharmaceuticals Co., Ltd., priority 2023, published 2026)

Test system: CHOK1-cyno-MUC1-C cells
Test: FACS-based determination of affinity of chimeric and humanized anti-MUC1-C antibodies
Type: binding
Set-up: key: “+” means that there was binding; “−” means that there was no binding
Conditions: Table 19-3
Description: HCC827-human-MUC1-C cells (in-house constructed overexpression stably transfected cell strain), CHOK1-cyno-MUC1-C cells (in-house constructed overexpression stably transfected cell strain), and T47D cells (human ductal breast cancer cells) were separately digested and added to a 96-well plate at 1E5 cells/well. After the plate was centrifuged at 300 g for 5 min, the supernatant was discarded, and the cells were washed once with a PBS buffer containing 2% FBS. The antibodies were 5-fold diluted from a starting concentration of 20 μg/mL using a PBS buffer containing 2% FBS to obtain a total of 8 concentration gradients. The antibody samples were added at 100 μL/well, and the cells were resuspended and incubated at 4° C. for 1 h. After the plate was centrifuged at 300 g for 5 min, the supernatant was discarded, and the cells were washed twice with a PBS buffer containing 2% FBS. […] After the plate was centrifuged at 300 g for 5 min, the supernatant was discarded, and the cells were washed twice with a PBS buffer containing 2% FBS. The cells were resuspended in 100 μL of a PBS buffer containing 2% FBS and analyzed using an instrument. […] The experimental process was the same as that in Test Example 1 “FACS-Based Determination of Affinity of Chimeric Antibodies”. In addition, CHOK1-human-MUC1-C cells (in-house constructed overexpression stably transfected cell strain) were used for evaluation.

Molecule | Qualitative determination
F4-1-H3L3: humanized antibody of F4-1: huF4-1VH3 + huF4-1VL3 (antibody) heavy: EIQLVQSGAEVVKPGASVKVSCKASGYTFTDNYINWVRQRPGQGLEYIGWIYPGSGNNKFNEKFKGRVTLTVDTSARTAYMELSSLRSEDTAVYYCARDYPFPSYHYGMDYWGQGTTVTVSSASTKGPSVFPLAPSSKSTSGGTAALGCLVKDYFPEPVTVSWNSGALTSGVHTFPAVLQSSGLYSLSSVVTVPSSSLGTQTYICNVNHKPSNTKVDKKV[human IgG1 Fc not spelt out] light: DIQLTQSPSSLSASVGDRVTITCSASSSVSYIHWFQQKPGTSPKLWIYSTSNLASGVPSRFSGSGSGTDFTLTVSSLQPEDFATYYCQQRSSYPPTFGGGTKVEIKRTVAAPSVFIFPPSDEQLKSGTASVVCLLNNFYPREAKVQWKVDNALQSGNSQESVTEQDSKDSTYSLSSTLTLSKADYEKHKVYACEVTHQGLSSPVTKSFNRGEC | +
F4-1-H1L1: humanized antibody of F4-1: huF4-1VH1 + huF4-1VL1 (antibody) heavy: EVQLVQSGAEVKKPGASVKVSCKASGYTFTDNYINWVRQAPGQRLEYMGWIYPGSGNNKFNEKFKGRVTITVDTSASTAYMELSSLRSEDTAVYYCARDYPFPSYHYGMDYWGQGTTVTVSSASTKGPSVFPLAPSSKSTSGGTAALGCLVKDYFPEPVTVSWNSGALTSGVHTFPAVLQSSGLYSLSSVVTVPSSSLGTQTYICNVNHKPSNTKVDKKV[human IgG1 Fc not spelt out] light: DIQMTQSPSSLSASVGDRVTITCSASSSVSYIHWFQQKPGKAPKLWIYSTSNLASGVPSRFSGSGSGTDFTLTISSLQPEDFATYYCQQRSSYPPTFGGGTKVEIKRTVAAPSVFIFPPSDEQLKSGTASVVCLLNNFYPREAKVQWKVDNALQSGNSQESVTEQDSKDSTYSLSSTLTLSKADYEKHKVYACEVTHQGLSSPVTKSFNRGEC | +
F4-1-H3L4: humanized antibody of F4-1: huF4-1VH3 + huF4-1VL4 (antibody) heavy: EIQLVQSGAEVVKPGASVKVSCKASGYTFTDNYINWVRQRPGQGLEYIGWIYPGSGNNKFNEKFKGRVTLTVDTSARTAYMELSSLRSEDTAVYYCARDYPFPSYHYGMDYWGQGTTVTVSSASTKGPSVFPLAPSSKSTSGGTAALGCLVKDYFPEPVTVSWNSGALTSGVHTFPAVLQSSGLYSLSSVVTVPSSSLGTQTYICNVNHKPSNTKVDKKV[human IgG1 Fc not spelt out] light: DIQLTQSPSSLSASVGDRVTITCSASSSVSYIHWFQQKPGTSPKLWIYSTSNLASGVPPRFSGSGSGTSFTLTVSSLQPEDFATYYCQQRSSYPPTFGGGTKVEIKRTVAAPSVFIFPPSDEQLKSGTASVVCLLNNFYPREAKVQWKVDNALQSGNSQESVTEQDSKDSTYSLSSTLTLSKADYEKHKVYACEVTHQGLSSPVTKSFNRGEC | +
F4-1-H2L4: humanized antibody of F4-1: huF4-1VH2 + huF4-1VL4 (antibody) heavy: EVQLVQSGAEVKKPGASVKVSCKASGYTFTDNYINWVRQAPGQRLEYIGWIYPGSGNNKFNEKFKGRVTLTVDTSARTAYMELSSLRSEDTAVYYCARDYPFPSYHYGMDYWGQGTTVTVSSASTKGPSVFPLAPSSKSTSGGTAALGCLVKDYFPEPVTVSWNSGALTSGVHTFPAVLQSSGLYSLSSVVTVPSSSLGTQTYICNVNHKPSNTKVDKKV[human IgG1 Fc not spelt out] light: DIQLTQSPSSLSASVGDRVTITCSASSSVSYIHWFQQKPGTSPKLWIYSTSNLASGVPPRFSGSGSGTSFTLTVSSLQPEDFATYYCQQRSSYPPTFGGGTKVEIKRTVAAPSVFIFPPSDEQLKSGTASVVCLLNNFYPREAKVQWKVDNALQSGNSQESVTEQDSKDSTYSLSSTLTLSKADYEKHKVYACEVTHQGLSSPVTKSFNRGEC | +

Same assay, conditions: Table 19-4

Molecule | Qualitative determination
F4-18-H3L1: humanized antibody of F4-18: huF4-18VH3 + huF4-18VL1 (antibody) heavy: EVQLVQSGAEVVKPGASVKMSCKTSGYTFTSYGINWVRQRPGQGLEWIGYIYLGSDYTEYNEKFKGRVTLTSDTSASTAYMELSSLRSEDTAVYYCARSAGSLFAYWGQGTLVTVSSASTKGPSVFPLAPSSKSTSGGTAALGCLVKDYFPEPVTVSWNSGALTSGVHTFPAVLQSSGLYSLSSVVTVPSSSLGTQTYICNVNHKPSNTKVDKKV[human IgG1 Fc not spelt out] light: DIQMTQSPSSLSASVGDRVTITCRASQDIGITLNWYQQKPGKAPKRLIYATSSLDSGVPSRFSGSRSGTDYTLTISSLQPEDFATYYCLQYASSPYTFGGGTKVEIKRTVAAPSVFIFPPSDEQLKSGTASVVCLLNNFYPREAKVQWKVDNALQSGNSQESVTEQDSKDSTYSLSSTLTLSKADYEKHKVYACEVTHQGLSSPVTKSFNRGEC | +
F4-18-H1L2: humanized antibody of F4-18: huF4-18VH1 + huF4-18VL2 (antibody) heavy: EVQLVQSGAEVKKPGASVKVSCKASGYTFTSYGINWVRQAPGQRLEWMGYIYLGSDYTEYNEKFKGRVTLTSDTSASTAYMELSSLRSEDTAVYYCARSAGSLFAYWGQGTLVTVSSASTKGPSVFPLAPSSKSTSGGTAALGCLVKDYFPEPVTVSWNSGALTSGVHTFPAVLQSSGLYSLSSVVTVPSSSLGTQTYICNVNHKPSNTKVDKKV[human IgG1 Fc not spelt out] light: DIQMTQSPSSLSASVGDRVTITCRASQDIGITLNWLQQKPGKAPKRLIYATSSLDSGVPSRFSGSRSGTDYTLTISSLQPEDFATYYCLQYASSPYTFGGGTKVEIKRTVAAPSVFIFPPSDEQLKSGTASVVCLLNNFYPREAKVQWKVDNALQSGNSQESVTEQDSKDSTYSLSSTLTLSKADYEKHKVYACEVTHQGLSSPVTKSFNRGEC | +
F4-18-H4L1: humanized antibody of F4-18: huF4-18VH4 + huF4-18VL1 (antibody) heavy: EVQLVQSGAEVVKPGASVKMSCKTSGYTFTSYGINWVRQRPGQGLEWIGYIYLGSDYTEYNEKFKGRVTLTSDTSASTAYMELSSLRSEDTAVYYCARSGGSLFAYWGQGTLVTVSSASTKGPSVFPLAPSSKSTSGGTAALGCLVKDYFPEPVTVSWNSGALTSGVHTFPAVLQSSGLYSLSSVVTVPSSSLGTQTYICNVNHKPSNTKVDKKV[human IgG1 Fc not spelt out] light: DIQMTQSPSSLSASVGDRVTITCRASQDIGITLNWYQQKPGKAPKRLIYATSSLDSGVPSRFSGSRSGTDYTLTISSLQPEDFATYYCLQYASSPYTFGGGTKVEIKRTVAAPSVFIFPPSDEQLKSGTASVVCLLNNFYPREAKVQWKVDNALQSGNSQESVTEQDSKDSTYSLSSTLTLSKADYEKHKVYACEVTHQGLSSPVTKSFNRGEC | +
F4-18-H5L1: humanized antibody of F4-18: huF4-18VH5 + huF4-18VL1 (antibody) heavy: EVQLVQSGAEVVKPGASVKMSCKTSGYTFTSYGINWVRQRPGQGLEWIGYIYLGSDYTEYNEKFKGRVTLTSDTSASTAYMELSSLRSEDTAVYYCARSAGSLFGYWGQGTLVTVSSASTKGPSVFPLAPSSKSTSGGTAALGCLVKDYFPEPVTVSWNSGALTSGVHTFPAVLQSSGLYSLSSVVTVPSSSLGTQTYICNVNHKPSNTKVDKKV[human IgG1 Fc not spelt out] light: DIQMTQSPSSLSASVGDRVTITCRASQDIGITLNWYQQKPGKAPKRLIYATSSLDSGVPSRFSGSRSGTDYTLTISSLQPEDFATYYCLQYASSPYTFGGGTKVEIKRTVAAPSVFIFPPSDEQLKSGTASVVCLLNNFYPREAKVQWKVDNALQSGNSQESVTEQDSKDSTYSLSSTLTLSKADYEKHKVYACEVTHQGLSSPVTKSFNRGEC | +
F4-18-H3L2: humanized antibody of F4-18: huF4-18VH3 + huF4-18VL2 (antibody) heavy: EVQLVQSGAEVVKPGASVKMSCKTSGYTFTSYGINWVRQRPGQGLEWIGYIYLGSDYTEYNEKFKGRVTLTSDTSASTAYMELSSLRSEDTAVYYCARSAGSLFAYWGQGTLVTVSSASTKGPSVFPLAPSSKSTSGGTAALGCLVKDYFPEPVTVSWNSGALTSGVHTFPAVLQSSGLYSLSSVVTVPSSSLGTQTYICNVNHKPSNTKVDKKV[human IgG1 Fc not spelt out] light: DIQMTQSPSSLSASVGDRVTITCRASQDIGITLNWLQQKPGKAPKRLIYATSSLDSGVPSRFSGSRSGTDYTLTISSLQPEDFATYYCLQYASSPYTFGGGTKVEIKRTVAAPSVFIFPPSDEQLKSGTASVVCLLNNFYPREAKVQWKVDNALQSGNSQESVTEQDSKDSTYSLSSTLTLSKADYEKHKVYACEVTHQGLSSPVTKSFNRGEC | +
F4-18-H4L2: humanized antibody of F4-18: huF4-18VH4 + huF4-18VL2 (antibody) heavy: EVQLVQSGAEVVKPGASVKMSCKTSGYTFTSYGINWVRQRPGQGLEWIGYIYLGSDYTEYNEKFKGRVTLTSDTSASTAYMELSSLRSEDTAVYYCARSGGSLFAYWGQGTLVTVSSASTKGPSVFPLAPSSKSTSGGTAALGCLVKDYFPEPVTVSWNSGALTSGVHTFPAVLQSSGLYSLSSVVTVPSSSLGTQTYICNVNHKPSNTKVDKKV[human IgG1 Fc not spelt out] light: DIQMTQSPSSLSASVGDRVTITCRASQDIGITLNWLQQKPGKAPKRLIYATSSLDSGVPSRFSGSRSGTDYTLTISSLQPEDFATYYCLQYASSPYTFGGGTKVEIKRTVAAPSVFIFPPSDEQLKSGTASVVCLLNNFYPREAKVQWKVDNALQSGNSQESVTEQDSKDSTYSLSSTLTLSKADYEKHKVYACEVTHQGLSSPVTKSFNRGEC | +
